This data set has as its system red table grape cultivar 'Crimson Seedless'. Description: Replicated field experiment on Crimson Seedless table grapes: colour development (harvestable clusters), firmness, berry weight, Brix; Synergy Index. The following applies: at harvest. From the text: The vineyard was 12 years old and on overhead trellis with a vine spacing of 12 ft by 7 ft (518 vines/acre). Plot size was three vines/replicate, with six replicates/treatments. The area evaluated within each plot was one center vine and two half vines on each side for a total of two vines. Applications were made seven days after veraison (beginning of berry softening). On the day of application, red coloration was developing on about 10% of the berries. […] All treatments were mixed with the adjuvant Latron B-1956 (0.05% v/v; Dow AgroSciences LLC, Indianapolis, Ind.). Treatments were applied with a backpack mist blower at 200 gallons/acre (757 l/acre).
The total grape clusters were counted on the day of application. After treatment, the plots were evaluated weekly for color development by counting the number of harvestable colored grape clusters in each plot. All harvestable colored clusters were removed 79 days later to eliminate over-mature clusters. The number of harvestable colored grape clusters was expressed as cumulative harvestable clusters (number of harvestable clusters per two vines). Average berry firmness, weight and Brix (soluble solids) were evaluated 5 days later. Evaluation samples consisted of 10 second shoulders (second lateral branch of the main rachis) from 10 different clusters selected randomly from each plot. All berries in the evaluation samples were removed, counted, and weighed. A sub-sample of 20 to 30 berries was crushed for brix (soluble solids) analysis. Brix was measured with a handheld temperature compensating Leica Refractometer. An additional 10 berries were selected randomly for berry firmness. Berry firmness was determined by a hand held Wilson Penetrometer (0 to 1000 g) mounted on a stand with a 6 mm tip.
Synergy was determined by an industrially accepted method (Kull et al., 1961, Applied Microbiology 9:538-541 and Robertson and Ramesh, 1998, U.S. Pat. No. 5,716,629). Synergy Index=Qa/QA+Qb/QB where:
Qa=dose of compound A in mg/vine, in the mixture, which produced an end point
QA=dose of compound A in mg/vine, acting alone, which produced an end point.
Qb=[…] of compound B in mg/vine, in the mixture, which produced an end point.
QB=dose of compound B in mg/vine, acting alone, which produced an end point.
Synergy, additivity, or antagonism are shown when the Synergy Index is less than one, equal to one, or greater than one, respectively.

[1] abbreviates: 292 mg/vine of each compound applied.

The text below walks through data of patent US9808004B2, “Synergistic combination to improve grape color and to alter sensory characteristics of wine” (Valent BioSciences Corporation, priority 2007, dated 2017).

For “(S)-5-(1-hydroxy-2,6,6,-trimethyl-4-oxo-2-cyclohexen-1-yl)-3-methyl-(2Z,4E)-pentadienoic acid [S-ABA]”, the Firmness (88 mg/vine of each compound applied) was found to be 766 g, the Firmness under setting [1] is listed as 759 g and the Firmness (877 mg/vine) came to 663 g.
Take `O=P(O)(O)CCCl` [Ethephon, reference compound]: under setting [1], the Firmness was 766 g.
